The results in this text go back to US10150760B2, “Compounds for use in preparing heterocyclic triazole agonists of the APJ receptor” (AMGEN INC., priority 2016, dated 2018).

By UniProt entry, the sequences of proteins in these tests, tags left out.
UniProt P35414, whole entry: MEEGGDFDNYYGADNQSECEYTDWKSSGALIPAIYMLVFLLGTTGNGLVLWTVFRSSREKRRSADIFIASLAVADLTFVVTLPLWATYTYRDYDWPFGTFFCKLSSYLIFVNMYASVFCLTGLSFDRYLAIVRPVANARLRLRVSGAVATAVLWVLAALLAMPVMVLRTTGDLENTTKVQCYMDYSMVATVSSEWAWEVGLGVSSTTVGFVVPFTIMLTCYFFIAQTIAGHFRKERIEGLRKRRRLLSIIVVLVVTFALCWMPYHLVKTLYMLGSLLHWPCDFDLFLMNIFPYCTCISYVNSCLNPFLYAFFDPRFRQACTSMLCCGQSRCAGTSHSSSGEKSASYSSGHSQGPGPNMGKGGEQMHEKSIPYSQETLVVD

The test system of assay [1] is isolated perfused rat hearts. Put plainly: Ex vivo isolated perfused rat heart assay (Langendorff apparatus), load independent inotropic and lusitropic effects. The following applies: percent change over vehicle.
In a further assay the target is APJ receptor (Homo sapiens (Human), UniProt P35414). Put plainly: [35S]GTPγS binding assay on membranes from CHO cells stably expressing human APJ receptor. In kind it is biochemical. The following applies: read-out: Activity hAPJ SPA EC50 IP. For orientation: Binding of GTPγS marks nucleotide exchange on a G protein.

Turning to `COc1cccc(OC)c1-n1c(NS(=O)(=O)[C@@H](C)[C@@H](OC(C)C)c2ncc(C)cn2)nnc1C1CCC(C)(C)O1` (single isomer, unassigned), in assay [1] (contractility), the “Isolated Heart Assay dP/dtmax (%)” value amounted to 4.09%. In addition, in assay [1] (relaxation), the “Isolated Heart Assay dP/dtmin (%)” value was 2.60%.
The EC50 is the concentration giving half of the maximal effect. For `COc1cccc(OC)c1-n1c(NS(=O)(=O)[C@@H](C)[C@H](C)c2ncc(Cl)cn2)nnc1C1COC(C)C1` (single isomer, unassigned) [443.0], on APJ receptor, the EC50 worked out at 17 nM.
As to `COc1cccc(OC)c1-n1c(NS(=O)(=O)[C@@H](C)[C@H](C)c2ncc(Cl)cn2)nnc1C1COC(C)C1` (single isomer, unassigned) [444.0], on APJ receptor, the EC50 was determined as 1.9 nM.
Same read-out and setting: under `COc1cccc(OC)c1-n1c(NS(=O)(=O)[C@@H](C)[C@H](C)c2ncc(Cl)cn2)nnc1C1COC(C)C1` (single isomer, unassigned) [442.0] stands 12 nM; under `COc1cccc(OC)c1-n1c(NS(=O)(=O)[C@@H](C)[C@H](C)c2ncc(C)cn2)nnc1C1CN2CCCC2CO1` (some centres unmarked), 1200 nM.
Same read-out and setting: under `COc1cccc(OC)c1-n1c(NS(=O)(=O)[C@@H](C)[C@H](C)c2ncc(Cl)cn2)nnc1C1COC(C)C1` (single isomer, unassigned) [441.0] stands 8.4 nM.
Still for that read-out and setting: under `COc1cccc(OC)c1-n1c(NS(=O)(=O)C(C)c2ccccc2F)nnc1C1CCCO1` (single isomer, unassigned) [432.0] stands 130 nM.
